{"sequences": {"note": "By UniProt entry, the sequences of proteins in these tests, tags left out. Residues count along the entry.", "UniProt P04062, 40-536 limits assumed": "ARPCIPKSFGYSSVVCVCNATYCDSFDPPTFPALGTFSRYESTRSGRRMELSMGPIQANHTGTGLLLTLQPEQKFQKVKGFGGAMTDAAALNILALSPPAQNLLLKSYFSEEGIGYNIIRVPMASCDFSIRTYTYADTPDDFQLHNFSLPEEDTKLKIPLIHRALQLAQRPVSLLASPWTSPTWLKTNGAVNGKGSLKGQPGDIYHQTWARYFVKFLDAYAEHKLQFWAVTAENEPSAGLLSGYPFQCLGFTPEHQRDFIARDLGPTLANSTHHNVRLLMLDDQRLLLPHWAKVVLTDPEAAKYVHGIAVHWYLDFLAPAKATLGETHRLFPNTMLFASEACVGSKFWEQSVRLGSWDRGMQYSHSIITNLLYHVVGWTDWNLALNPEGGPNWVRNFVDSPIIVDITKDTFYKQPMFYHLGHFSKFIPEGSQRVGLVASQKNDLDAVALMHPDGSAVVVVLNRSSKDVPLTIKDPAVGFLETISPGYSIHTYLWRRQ", "UniProt P17439, 20-515 limits assumed": "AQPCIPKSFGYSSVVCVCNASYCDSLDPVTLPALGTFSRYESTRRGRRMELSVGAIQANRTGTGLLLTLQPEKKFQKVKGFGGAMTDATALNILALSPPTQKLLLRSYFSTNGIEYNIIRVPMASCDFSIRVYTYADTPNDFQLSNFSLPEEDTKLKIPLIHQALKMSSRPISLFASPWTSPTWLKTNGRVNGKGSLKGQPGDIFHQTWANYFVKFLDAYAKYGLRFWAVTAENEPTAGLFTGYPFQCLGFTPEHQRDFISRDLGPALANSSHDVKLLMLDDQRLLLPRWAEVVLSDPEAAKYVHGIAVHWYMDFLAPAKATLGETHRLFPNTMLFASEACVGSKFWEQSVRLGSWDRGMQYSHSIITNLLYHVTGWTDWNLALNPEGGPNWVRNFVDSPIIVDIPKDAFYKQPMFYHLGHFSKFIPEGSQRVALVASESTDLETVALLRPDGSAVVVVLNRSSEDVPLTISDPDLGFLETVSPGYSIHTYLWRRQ"}, "source": "paper PMC4357465", "about": "“Tool Compounds Robustly Increase Turnover of an Artificial Substrate by Glucocerebrosidase in Human Brain Lysates” (PLoS ONE, 2015)", "key": {"[1]": {"target": "purified human GBA1 (Homo sapiens, UniProt P04062)", "experiment": "GBA1 enzymatic cell-free assay, turnover of 4MUG", "assay_type": "biochemical", "conditions": "for activation of purified GBA1, % signal: maximal signal, absence of sodium taurocholate; for activation of purified GBA1, % signal / EC50: representative experiment"}, "[2]": {"target": "GBA1 in lysates from human cortex (Homo sapiens, UniProt P04062)", "experiment": "GBA1 tissue assay, 4MUG turnover in human cortex lysates", "conditions": "for % activation at 31.6 μM + NaTc: with sodium taurocholate; for EC50: read-out: EC50 + NaTc, with sodium taurocholate, three independent experiments"}, "[3]": {"system": "GBA1 in lysates from human cortex", "experiment": "GBA1 tissue assay, 4MUG turnover in human cortex lysates", "conditions": "for % activation at 31.6 μM - NaTc: without sodium taurocholate; for EC50: read-out: EC50 - NaTc, without sodium taurocholate, three independent experiments"}, "[4]": {"target": "GBA1 in mouse brain lysates (Mus musculus, UniProt P17439)", "experiment": "GBA1 tissue assay, 4MUG turnover in mouse brain lysates", "assay_type": "biochemical", "method": "(§1) Human cortex was acquired from brain banks (Tissue Solutions: http://www.tissue-solutions.com; Proteogenex: http://www.proteogenex.com). Human cortex samples were obtained from deceased aged Caucasian subjects without any diagnosis of neurodegenerative disorders. Mouse brain was obtained from 4–7 month old C57BL/6J mice. All mouse experiments were performed in accordance with the specifications of both the National Institutes of Health Guide for the Care and Use of Laboratory Animals, studies were approved by Pfizer’s Internal Animal Care and Use Committee (IACUC). […] Samples were then centrifuged at 20,000g for 15 minutes at 4°C. Supernatant was collected, and used for activity assays and Western blots. Protein concentration was determined using the Pierce BCA protein assay kit. Tissue lysates and pellets were stored at -80°C until use. For enzymatic activity assays, lysates were subjected only to one free-thaw cycle. Independent replicates were obtained using brain lysates from either different human subjects or different mice. […] Brain tissue lysates were diluted to 0.4 μg/ μl of protein in the same homogenization buffer, as described above. 25 μl of diluted lysate was added to the plate (Costar, 7200567). Lysates were then incubated on ice in the presence or absence of a compound for 30 minutes. 100 μl of assay buffer was then added to the plate. The same assay buffer was used as in the cell free/recombinant experiments and processed as described above."}, "[5]": {"system": "GBA1 in mouse brain lysates", "experiment": "GBA1 tissue assay, 4MUG turnover in mouse brain lysates", "assay_type": "biochemical", "conditions": "mouse brain lysates; 31.6 μM; without sodium taurocholate", "method": "as §1"}, "[6]": {"target": "human recombinant GBA1 in mouse brain lysates (Homo sapiens, UniProt P04062)", "experiment": "human recombinant GBA1 added to mouse brain lysates, 4MUG turnover", "conditions": "purified human GBA1 added to mouse brain lysates; for EC50: mean ± SEM"}, "[7]": {"target": "wild-type human GBA1 (Homo sapiens, UniProt P04062)", "experiment": "assay measuring turnover of glucosylceramide", "conditions": "cell free, natural substrate 50 μM glucosylceramide"}, "[8]": {"experiment": "solubility of compounds under assay conditions", "assay_type": "physicochemical"}, "[9]": {"system": "N370S mutant GBA1", "conditions": "human spleen homogenates; cited from earlier work"}, "[10]": {"conditions": "read-out: EC50 purified GBA1 (+NaTc), with sodium taurocholate"}, "[11]": {"conditions": "read-out: EC50 purified GBA1 (-NaTc), without sodium taurocholate"}, "[12]": {"conditions": "mouse brain lysates, with sodium taurocholate"}, "[13]": {"conditions": "read-out: EC50: + NaTc, with sodium taurocholate"}, "[14]": {"conditions": "read-out: EC50: - NaTc, without sodium taurocholate"}}, "note": "Like-named read-outs stand apart in the source and are kept apart here."}
{"smiles": "C#Cc1ccc(NC(=O)c2cnn3c(C)cc(C)nc23)cc1", "values": [{"measurement": "activation of purified GBA1, % signal", "setting": "[1]", "result": 210, "unit": "%"}, {"measurement": "EC50", "setting": "[1]; [10]", "result": 790, "unit": "nM"}, {"measurement": "EC50", "setting": "[1]; [11]", "result": 230, "unit": "nM"}, {"measurement": "% activation at 31.6 μM + NaTc", "setting": "[2]", "result": "55 ± 2", "unit": "%"}, {"measurement": "EC50", "setting": "[2]", "result": 1060, "unit": "nM"}, {"measurement": "% activation at 31.6 μM - NaTc", "setting": "[3]", "result": "19 ± 6", "unit": "%"}, {"measurement": "EC50", "setting": "[3]", "result": 1020, "unit": "nM"}, {"measurement": "% activation at 31.6 μM: + NaTc", "setting": "[4]; [12]", "result": "5 ± 2", "unit": "%"}, {"measurement": "% activation at 31.6 μM: - NaTc", "setting": "[5]", "result": "-13 ± 4", "unit": "%"}, {"measurement": "% activation at 31.6 μM: + NaTc", "setting": "[6]; with sodium taurocholate", "result": "78 ± 8", "unit": "%"}, {"measurement": "% activation at 31.6 μM: - NaTc", "setting": "[6]; without sodium taurocholate", "result": "133 ± 7", "unit": "%"}, {"measurement": "EC50", "setting": "[6]; [13]", "result": 770, "unit": "nM"}, {"measurement": "EC50", "setting": "[6]; [14]", "result": 340, "unit": "nM"}, {"measurement": "human GBA1 activity measured by cleavage of glucosylceramide substrate", "setting": "[7]", "result": "do not increase"}, {"measurement": "highest concentration at which both compounds were soluble", "setting": "[8]", "result": 31.6, "unit": "µM"}, {"measurement": "turnover of 4MUG artificial substrate by N370S mutant GBA1", "setting": "[9]", "result": "can increase turnover"}]}
{"smiles": "Cc1cc(C)n2ncc(C(=O)Nc3ccc(Br)cc3)c2n1", "values": [{"measurement": "activity of deglycosylated or sonicated human recombinant GBA1", "setting": "[1]; 10 μM, 4MUG assay", "result": "can be also modulated"}, {"measurement": "activation of purified GBA1, % signal", "setting": "[1]", "result": 370, "unit": "%"}, {"measurement": "EC50", "setting": "[1]; [10]", "result": 870, "unit": "nM"}, {"measurement": "EC50", "setting": "[1]; [11]", "result": 430, "unit": "nM"}, {"measurement": "% activation at 31.6 μM + NaTc", "setting": "[2]", "result": "90 ± 8", "unit": "%"}, {"measurement": "EC50", "setting": "[2]", "result": 820, "unit": "nM"}, {"measurement": "% activation at 31.6 μM - NaTc", "setting": "[3]", "result": "42 ± 13", "unit": "%"}, {"measurement": "EC50", "setting": "[3]", "result": 790, "unit": "nM"}, {"measurement": "effect on GBA1 activity relative to vehicle/DMSO", "setting": "[4]; 10 μM, mouse brains left at room temperature 0, 2, 4 or 24 hours", "result": "only a small effect"}, {"measurement": "% activation at 31.6 μM: + NaTc", "setting": "[4]; [12]", "result": "12 ± 4", "unit": "%"}, {"measurement": "EC50", "setting": "[4]; read-out: EC50: + NaTc, mouse brain lysates, with sodium taurocholate, three independent experiments", "result": 1280, "unit": "nM"}, {"measurement": "% activation at 31.6 μM: - NaTc", "setting": "[5]", "result": "-14 ± 3", "unit": "%"}, {"measurement": "% activation at 31.6 μM: + NaTc", "setting": "[6]; with sodium taurocholate", "result": "84 ± 10", "unit": "%"}, {"measurement": "% activation at 31.6 μM: - NaTc", "setting": "[6]; without sodium taurocholate", "result": "231 ± 10", "unit": "%"}, {"measurement": "EC50", "setting": "[6]; [13]", "result": 890, "unit": "nM"}, {"measurement": "EC50", "setting": "[6]; [14]", "result": 700, "unit": "nM"}, {"measurement": "human GBA1 activity measured by cleavage of glucosylceramide substrate", "setting": "[7]", "result": "do not increase"}, {"measurement": "highest concentration at which both compounds were soluble", "setting": "[8]", "result": 31.6, "unit": "µM"}, {"measurement": "turnover of 4MUG artificial substrate by N370S mutant GBA1", "setting": "[9]", "result": "can increase turnover"}]}
